Key:
NOD2 = experiment: MDP-stimulated signal transduction in NOD2 reporter cell lines; format: cell-based; settings: reporter cell lines with low or overexpressed NOD2
[1] = tested on: non-NOD-stimulated NF-κB pathways; experiment: Non-NOD-stimulated NF-κB pathway reporter assays (TNF-α, doxorubicin, PMA/ionomycin); format: cell-based; settings: doxorubicin and PMA/ionomycin reporter assays

Cc1ccc(S(=O)(=O)n2c(N)nc3ccccc32)cc1 [Probe 13]
Selectivity for NOD1-dependent over MDP-stimulated (NOD2-dependent) signal transduction (NOD2): > 40 fold | Selectivity over non-NOD-stimulated NF-κB pathways [1]: selective
